Reference: US12558324B2, “Application of R-ketamine and salt thereof as pharmaceuticals” (National University Corporation Chiba University, priority 2013, dated 2026)

Tests used:
[1] = tested on: social defeat stress mice; assay: Golgi staining, spine density in brain regions of social defeat stress mice; conditions: 10 mg/kg i.p.; for spine density of the hippocampus CA1 region / spine density of the hippocampus CA3 region (decrease by social defeat stress) / spine density of the nucleus accumbens (increase by social defeat stress) / spine density of the striatum / spine density of the frontal cortex (mPFC) / spine density of the hippocampal dentate gyrus: Golgi staining 8 days after injection; for spine density of the frontal cortex (mPFC) / spine density of the hippocampal dentate gyrus: vs saline
NMDA receptor = conditions: greater than R-isomer; Non Patent Literature 12; cited from earlier work

Row | SMILES | restoration of spine density in the hippocampal dentate gyrus compared to S(+)-ketamine ([1]; 8 days after injection) | spine density of the hippocampus CA1 region [1] | spine density of the hippocampus CA3 region (decrease by social defeat stress) [1] | spine density of the nucleus accumbens (increase by social defeat stress) [1] | spine density of the striatum [1] | spine density of the frontal cortex (mPFC) [1] | spine density of the hippocampal dentate gyrus [1] | affinity for the NMDA receptor relative to R-isomer (NMDA receptor)
1 | CN[C@@]1(c2ccccc2Cl)CCCCC1=O.Cl [R(−)-ketamine, R(−)-ketamine hydrochloride] | more significant improvement in the restoration of spine density | no apparent change in spine density was observed | significantly improved | significantly improved | no apparent change in spine density was observed | significantly improved the decreased density of spine | significantly improved the decreased density of spine | 
2 | CN[C@]1(c2ccccc2Cl)CCCCC1=O.Cl [S(+)-ketamine, S(+)-ketamine hydrochloride] |  | no apparent change in spine density was observed | significantly improved | significantly improved | no apparent change in spine density was observed | significantly improved the decreased density of spine | significantly improved the decreased density of spine | approximately 4 fold
